We go through three compounds from US5399487A, “6-peptidylamino-1-naphthalenesulfonamides useful as fluorogenic proteolytic enzyme substrates” (Haematologic Technologies, Inc., priority 1993, dated 1995).

Sequences of proteins named here, by UniProt entry; tags and fusion partners are left off. Residues count along the entry.
UniProt P04070, 43-197 limits assumed: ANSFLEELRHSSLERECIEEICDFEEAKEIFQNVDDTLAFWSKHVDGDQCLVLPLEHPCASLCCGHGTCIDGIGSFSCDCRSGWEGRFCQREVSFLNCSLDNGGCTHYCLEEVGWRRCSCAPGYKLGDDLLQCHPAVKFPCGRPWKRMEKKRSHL
UniProt P04070, 212-461 limits assumed: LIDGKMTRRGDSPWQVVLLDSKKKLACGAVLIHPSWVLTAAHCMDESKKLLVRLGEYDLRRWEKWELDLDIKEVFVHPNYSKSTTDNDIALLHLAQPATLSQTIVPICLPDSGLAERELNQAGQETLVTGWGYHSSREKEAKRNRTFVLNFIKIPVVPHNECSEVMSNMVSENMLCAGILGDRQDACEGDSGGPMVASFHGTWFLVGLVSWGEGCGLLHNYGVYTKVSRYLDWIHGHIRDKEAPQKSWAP
UniProt P00747, 97-580 limits assumed: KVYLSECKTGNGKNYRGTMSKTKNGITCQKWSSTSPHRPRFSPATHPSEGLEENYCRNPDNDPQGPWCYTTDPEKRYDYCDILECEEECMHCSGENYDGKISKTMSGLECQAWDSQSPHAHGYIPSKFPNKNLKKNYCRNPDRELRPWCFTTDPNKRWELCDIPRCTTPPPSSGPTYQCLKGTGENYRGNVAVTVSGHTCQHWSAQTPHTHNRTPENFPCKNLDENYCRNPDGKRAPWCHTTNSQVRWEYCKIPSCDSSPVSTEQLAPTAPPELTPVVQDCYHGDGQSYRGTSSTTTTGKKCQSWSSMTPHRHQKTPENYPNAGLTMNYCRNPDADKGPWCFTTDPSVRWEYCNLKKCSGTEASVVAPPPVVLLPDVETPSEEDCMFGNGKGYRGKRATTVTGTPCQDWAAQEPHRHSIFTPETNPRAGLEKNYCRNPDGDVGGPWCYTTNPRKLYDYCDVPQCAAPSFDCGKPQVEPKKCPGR
UniProt P00747, 581-810 limits assumed: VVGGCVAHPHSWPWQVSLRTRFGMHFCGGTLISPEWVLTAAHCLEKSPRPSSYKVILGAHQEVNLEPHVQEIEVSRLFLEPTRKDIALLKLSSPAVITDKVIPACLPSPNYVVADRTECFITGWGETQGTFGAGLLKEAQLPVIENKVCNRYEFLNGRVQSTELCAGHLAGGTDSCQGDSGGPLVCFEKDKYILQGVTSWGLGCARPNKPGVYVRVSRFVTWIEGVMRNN
UniProt P00742, 41-179 limits assumed: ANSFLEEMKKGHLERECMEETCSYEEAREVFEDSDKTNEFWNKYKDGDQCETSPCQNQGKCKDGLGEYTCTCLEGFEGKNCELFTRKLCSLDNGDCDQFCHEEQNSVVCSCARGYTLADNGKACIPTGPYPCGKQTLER
UniProt P00742, 235-488 limits assumed: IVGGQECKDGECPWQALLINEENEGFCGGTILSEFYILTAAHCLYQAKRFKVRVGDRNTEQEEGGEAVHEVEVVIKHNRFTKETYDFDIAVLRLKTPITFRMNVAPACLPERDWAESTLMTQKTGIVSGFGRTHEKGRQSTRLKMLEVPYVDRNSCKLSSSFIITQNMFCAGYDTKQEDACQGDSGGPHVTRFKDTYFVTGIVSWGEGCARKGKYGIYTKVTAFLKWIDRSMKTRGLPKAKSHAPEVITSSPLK
UniProt P00750, 36-562 limits assumed: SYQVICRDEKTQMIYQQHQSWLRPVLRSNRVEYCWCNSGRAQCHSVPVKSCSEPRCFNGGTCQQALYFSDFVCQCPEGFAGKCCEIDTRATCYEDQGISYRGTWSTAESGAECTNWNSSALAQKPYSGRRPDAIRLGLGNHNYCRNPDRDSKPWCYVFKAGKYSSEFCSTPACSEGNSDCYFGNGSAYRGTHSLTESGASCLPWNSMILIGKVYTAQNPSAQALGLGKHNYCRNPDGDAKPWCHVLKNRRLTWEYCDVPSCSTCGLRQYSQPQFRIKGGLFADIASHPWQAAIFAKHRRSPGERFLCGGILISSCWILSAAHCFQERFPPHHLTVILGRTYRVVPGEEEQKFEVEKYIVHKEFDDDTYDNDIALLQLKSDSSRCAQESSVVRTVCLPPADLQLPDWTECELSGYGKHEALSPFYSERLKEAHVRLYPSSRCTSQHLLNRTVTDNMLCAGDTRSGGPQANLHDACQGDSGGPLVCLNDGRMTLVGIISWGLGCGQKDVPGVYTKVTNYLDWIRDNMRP

What all share (test): Fluorogenic enzyme assay (Example 5)
Test [1] concerns the target activated protein C (APC) (Homo sapiens, UniProt P04070). As to conditions: tested form: HBr; for Time (min) for 10% hydrolysis, APC: enzyme 100 nM, substrate 1 μM. As for the experimental part: (§1) Enzyme assays (except factor VIIa assays, see below) were conducted in 20 mM Tris, 150 mM NaCl, pH 7.4 (TBS) at room temperature (22° C.). The final volume for all reaction mixtures was 2.0 ml. Fluorogenic substrates were dissolved in DMSO to a stock concentration of 10 mM. The 10 mM stock solution was diluted in TBS to the final working concentration prior to all assays. Enzyme was added to mixtures containing buffer components and substrate and the initial rate of substrate hydrolysis was measured as the change in fluorescent intensity over time, corresponding to the generation of the particular 6-amino-1-naphthalenesulfonamide fluorophore from the provided substrate. Quantitation of substrate hydrolysis was accomplished by establishing a standard curve from the appropriate fluorescent moiety. Fluorescence was monitored (continuously or discontinuously) using a Perkin Elmer fluorescence spectrophotometer, model MPF-44A, equipped with a standard chart recorder. The fluorophore was detected using monochrometers set at an excitation wavelength of 352 nm and an emission wavelength of 470 nm. Light scattering artifacts were minimized using a 399 nm cut off filter in the emission light beam.
(§2) The kinetic constants of substrate hydrolysis were determined using the non-linear least squares regression analysis program ENZFITTER (Cambridge, UK). This program was used to iteratively fit initial rates of substrate hydrolysis to the Michaelis-Menten equation and the kinetic constants of substrate hydrolysis (Km) and (kcat) were calculated.

A further test deals with thrombin (IIa) (Homo sapiens, UniProt P00734). The settings on record: tested form: HBr; for Time (min) for 10% hydrolysis, IIa: enzyme 100 nM, substrate 1 μM; for Km: read-out: Km, IIa. As for the experimental part:
as §1, §2

For a further test, the target named is plasmin (Plm) (Homo sapiens, UniProt P00747). As to conditions: enzyme 100 nM, substrate 1 μM, tested form: HBr. As for the experimental part: as §1, §2
The next test addresses factor Xa (Homo sapiens, UniProt P00742). The settings on record: tested form: HBr; for kcat /Km, Xa / kcat, Xa / Km: Table 7; for Time (min) for 10% hydrolysis, Xa: enzyme 100 nM, substrate 1 μM; for Km: read-out: Km, Xa. As for the experimental part:
as §1, §2

The next test deals with urokinase (u-PA) (Homo sapiens, UniProt P00749). The settings on record: enzyme 100 nM, substrate 1 μM, tested form: HBr. As for the experimental part:
as §1, §2

Test [2] concerns the target tissue plasminogen activator (t-PA) (Homo sapiens, UniProt P00750). As to conditions: enzyme 100 nM, substrate 1 μM, tested form: HBr; for Time (min) for 5% hydrolysis, t-PA: footnote b. As for the experimental part: as §1, §2

For the compound `N=C(N)NCCC[C@H](NC(=O)OCc1ccccc1)C(=O)Nc1ccc2c(S(=O)(=O)N3CCCCC3)cccc2c1`, the “Hydrolysis kinetic constants, APC (symbol b)” value in test [1] (Table 7) is listed as “b”. In addition, in test [1], the “Time (min) for 10% hydrolysis, APC” value is 360 min. The “Hydrolysis kinetic constants, IIa (symbol b)” value on thrombin (IIa) (Table 7) is given as “b”. At thrombin (IIa), the “Time (min) for 10% hydrolysis, IIa” value was determined as 90 min. For the same compound, on plasmin (Plm), the “Time (min) for 10% hydrolysis, Plm” value worked out at 1220 min. For the same compound, on factor Xa, the “kcat /Km, Xa” value stood at 924 M⁻¹ s⁻¹; the “kcat, Xa” value was found to be 0.06 s⁻¹; the “Time (min) for 10% hydrolysis, Xa” value is listed as 41 min; the Km (as a rule, the substrate concentration at which the rate is half of its maximum) came to 64.9 µM. Also, the “hydrolysis, u-PA (symbol N.D.)” value at urokinase (u-PA) (after 24 hrs) is reported as “N.D. (Less than 5% hydrolysis after 24 hrs.)”. Moreover, the “hydrolysis, t-PA (symbol N.D.)” value in test [2] (after 24 hrs) is “N.D. (Less than 5% hydrolysis after 24 hrs.)”.

As to `CCCCNS(=O)(=O)c1cccc2cc(NC(=O)[C@H](CCCNC(=N)N)NC(=O)OCc3ccccc3)ccc12`, in test [1] (Table 7), the “kcat /Km, APC” value turned out to be 3600 M⁻¹ s⁻¹ and the “kcat, APC” value is 0.62 s⁻¹. The “Time (min) for 10% hydrolysis, APC” value in test [1] was 8 min. The Km in test [1] (read-out: Km, APC, Table 7) was determined as 171 µM. At thrombin (IIa) (Table 7), the “kcat /Km, IIa” value was determined as 1260 M⁻¹ s⁻¹; the “kcat, IIa” value worked out at 0.04 s⁻¹; the Km is 32.4 µM. In addition, on thrombin (IIa), the “Time (min) for 10% hydrolysis, IIa” value is 17 min. Moreover, at plasmin (Plm), the “Time (min) for 10% hydrolysis, Plm” value was found to be 540 min. Moreover, on factor Xa, the “kcat /Km, Xa” value was 576 M⁻¹ s⁻¹; the “kcat, Xa” value amounted to 0.08 s⁻¹; the “Time (min) for 10% hydrolysis, Xa” value is given as 34 min; the Michaelis constant (Km) amounted to 139 µM. The “Time (min) for 10% hydrolysis, u-PA” value on urokinase (u-PA) is reported as 28 min. In addition, the “Time (min) for 5% hydrolysis, t-PA” value in test [2] is recorded as 720 min.

Take `CCNS(=O)(=O)c1cccc2cc(NC(=O)[C@H](CCCNC(=N)N)NC(=O)OCc3ccccc3)ccc12`: the “Hydrolysis kinetic constants, APC (symbol b)” value in test [1] (Table 7) is on record as “b”. Also, the “Time (min) for 10% hydrolysis, APC” value in test [1] is reported as 34 min. Besides, at thrombin (IIa) (Table 7), the “kcat /Km, IIa” value came to 820 M⁻¹ s⁻¹; the “kcat, IIa” value turned out to be 0.14 s⁻¹; the Km came to 171 µM. Also, the “Time (min) for 10% hydrolysis, IIa” value at thrombin (IIa) is 30 min. Also, on plasmin (Plm) (after 24 hrs), the “hydrolysis, Plm (symbol N.D.)” value is “N.D. (Less than 5% hydrolysis after 24 hrs.)”. At factor Xa, the “kcat /Km, Xa” value is 636 M⁻¹ s⁻¹; the “kcat, Xa” value is 0.08 s⁻¹; the “Time (min) for 10% hydrolysis, Xa” value was 25 min; the Km amounted to 121 µM. Further, the “Time (min) for 10% hydrolysis, u-PA” value on urokinase (u-PA) amounted to 270 min. Moreover, the “Time (min) for 5% hydrolysis, t-PA” value in test [2] is given as 1140 min.
